The text below walks through data of patent publication US20140171466A1, “PAIN MANAGEMENT IN SICKLE CELL ANEMIA” (priority 2012, published 2014).

Test [1] has as its target mu opioid receptor (Homo sapiens, UniProt P35372). Briefly: [35S]GTPγS binding assay μ. The settings on record: for EC50: read-out: [35S]GTPγS μ EC50. (GTPγS resists hydrolysis and so accumulates on activated G proteins.)
Test [2] addresses human μ opioid receptor (Homo sapiens, UniProt P35372). Description: Receptor binding, [3H]DAMGO displacement. The settings on record: read-out: Receptor Binding Ki (nM) μ.
Test [3] addresses human NOP receptor (Homo sapiens, UniProt P41146). Briefly: Receptor binding, [3H]nociceptin displacement, CHO cell membranes. The settings on record: read-out: Receptor Binding Ki (nM) NOP.

Take `CC(C)[C@H]1CC[C@@H](N2CCC3(CC2)C(=O)N(CC(=O)OC(C)(C)C)CN3c2ccccc2)CC1`: the “[35S]GTPγS μ % Stim” value in test [1] (full agonist DAMGO as standard) was 29 ± 6%. Besides, in test [1], the concentration giving a half-maximal response (EC50) (as a rule, the concentration giving half of the maximal effect) stood at 64 nM. Moreover, the Ki (commonly a measure of affinity in units of concentration, obtained from inhibition or displacement) in test [2] stood at 32.7 nM; in test [3], 0.97 nM.

Take `O=C1Cc2ccccc2N1C1CCN(C2CCC3CCCc4cccc2c43)CC1` (stereo not drawn): the EC50 in test [1] was 129 nM. Moreover, the Ki in test [2] was 79.8 nM.
